One molecule from ChEMBL document CHEMBL1125524, “Adenosine A1 antagonists. 2. Structure-activity relationships on diuretic activities and protective effects against acute renal failure” (J Med Chem, 1992) can be followed below.

Sequences of proteins named here, by UniProt entry; tags and fusion partners are left off.
UniProt P47745, whole entry: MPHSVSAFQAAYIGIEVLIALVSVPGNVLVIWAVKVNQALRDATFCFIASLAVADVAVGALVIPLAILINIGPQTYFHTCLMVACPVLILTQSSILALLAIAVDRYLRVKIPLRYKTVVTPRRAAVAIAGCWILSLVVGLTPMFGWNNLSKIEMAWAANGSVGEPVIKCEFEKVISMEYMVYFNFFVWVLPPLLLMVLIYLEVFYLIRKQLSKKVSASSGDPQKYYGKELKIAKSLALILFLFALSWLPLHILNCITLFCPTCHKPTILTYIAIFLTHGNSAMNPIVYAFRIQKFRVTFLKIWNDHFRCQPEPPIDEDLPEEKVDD

The term Ki denotes the equilibrium dissociation constant of an inhibitor or competing ligand from its target. Read a high Ki as weaker binding.

This test concerns the target Adenosine receptor A1 (Cavia porcellus, UniProt P47745).

On to `Nc1nc2ccc(Cl)cc2c2nc(-c3ccco3)nn12` [CGS-15943], for which the affinity, expressed as Ki, was 10 nM.
